Consider one substance from patent publication US11179329B2, “Therapeutical use of H3-ligands” (BIOPROJET Pharma, priority 2017, dated 2021).

The series can be described thus: Comparative pharmacokinetic data in mice (plasma and brain). Particulars: male swiss mice.
The mark [1] stands for this setting: normalized at 1 mg of base/kg, 24 hours sampling.

For “(3S)-4-{4-[3-(3-methylpiperidin-1-yl)propoxy]phenyl}pyridine 1-oxide 1,2-ethanedisulfonate [Example 14]”, the “ratio of plasma AUC over the AUC of the dihydrochloride tetrahydrate” value is 0.7. Further, under setting [1], the AUC brain turned out to be 676 ng·h/mg and the AUC plasma amounted to 438 ng·h/mg.
